The values that follow come from patent US12233105B1, “Methods for storing and warming purified corticotropin compositions” (ANI Pharmaceuticals, Inc., priority 2022, dated 2025).

This data set has as its system THP-1 Blue, Raw Blue, HEK-blue hTLR3, HEK-Blue hTLR4, HEK-Blue hNOD2. Kind of data set: Innate immune response activation assays in TLR/NOD2 reporter cell lines. The class given is cell-based. The settings on record: 5 cell lines covering TLR and NOD2 expression; 3 PPQ lots; highest drug substance concentration tested 10 μg/mL. The procedure: Method development, qualification, and testing for activation of innate immune response was performed. The innate immune assays performed compared 3 PPQ lots. The work was conducted using 5 cell lines to cover TLR and NOD2 expression (THP-1 Blue, Raw Blue, HEK-blue hTLR3, HEK-Blue hTLR4, HEK-Blue hNOD2). Positive control ligands Poly (I: C) HMW, LPS-EK, FSL-1, CL075 and MDP were included in each assay. […] The highest drug substance concentration tested was 10 μg/mL. A dose of the sterile preparation of purified corticotropin at 80 U is, equivalent to approximately 1 mg of drug substance per total body weight of subject.

As for FSL-1, the “dose response for activation of innate immune response” value is on record as “robust dose responses”.
